12-LOX inh: blocks human arachidonate 12S-lipoxygenase; P18054; purified 12hLO, xylenol orange hydroperoxide absorbance; Potency, µM (titrated, usually from 108 µM), for the others: at the highest dose activity change, negative = inhibition, hits mostly inhibitors; 580,000 tested, 1.1% active; AID 1671190; further: potency means the concentration at half of the fitted maximal effect; on the % scale 0 is the no-effect control and ±100 the full control effect
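Hydroperoxide product was detected by ferrous iron/xylenol orange as the 573 to 405 nm absorbance ratio. Arachidonic acid at 40 uM (final) was turned over for 30 min at room temperature by 150 nM human 12hLO, pH 7.0 Hepes buffer, after 15 min compound preincubation.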
ERG-DNA inh: ERG Ets/DNA interaction inhibition | fluorescence polarization, His-ERG Ets domain / labelled DNA | 370,000 tested, 0.028% active | P11308 | AID 624246 | Potency, µM (series often up to 76.9 µM), for inactives: at the highest dose FP activity, negative = inhibition, most hits filed as inhibitors; active means well fitted inhibition curve with a large enough effect in the polarisation, with a control signal flat; inconclusive means small, poorly fitted or top-dose-only effect, or effect the other way, or a change in a side signal; inactive means no such curve, though single readings can be large or run the other way; the % refers to the polarisation;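 further: polarization taken with two DNA probes labelled with fluorescein and Texas red; potency means the concentration at half of the fitted maximal effect; % of control where 0% means no effect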
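His-tagged ERG Ets domain (1 uM in the protein solution; 300mM KCl, 50mM Tris-HCl, 1mM EDTA, 1mM DTT, pH 7.5) received compound, then a probe mix of 5 nM fluorescein-DNA and 100nM Texas-615-DNA. Fluorescence polarization was read for both dyes.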
miR-21 FLuc: miR-21 reporter, rising signal | 340,000 tested, under 10 active | AID 2288 | HeLa miR-21 FLuc reporter, luciferase, 48 h | Potency, µM (titrated, usually from 38.3 µM), for inactives: at the highest dose reporter change, positive = more light; active = well fitted rising curve with a large enough effect; inconclusive = small, poorly fitted or top-dose-only effect; inactive = no such curve, though single readings can be large or run the other way;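 further: % of control where 0% means no effect; miR-21 action dims this reporter so a rising signal means less miR-21 action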
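Luminescence from a firefly luciferase reporter carrying a miR-21 binding site downstream, stably expressed under a CMV promoter in HeLa cells that make miR-21 endogenously, reports miRNA modulation after 48 h compound exposure up to approximately 40uM final.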
PTHR1 agonist: agonists of human PTHR1 parathyroid hormone receptor | Q03431 | Potency, µM (highest dose often 115 µM), without a hit: top-dose activation, usual class: activators | 410,000 tested, 0.075% active | HEK293 GP2 PTHR1 cells, GloSensor cAMP luminescence, 1 h; further: potency means the concentration at half of the fitted maximal effect; nearly all actives have a fitted effect of over 55% in size
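HEK-293-derived GP2 cells expressing PTHR1 and a GloSensor cAMP reporter, 3,000/well, plated overnight, given luciferin plus IBMX (each 0.5 mM as added) for 1 h at 37 °C, then compound for 1 h at 37 °C. Luminescence was read after 15 min at room temperature.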
Giardia killer: Giardia lamblia killing | Giardia lamblia trophozoite viability | activity change, % at 7.66 µM, hits read low | 340,000 tested, 0.15% active; in the data active means activity change below about -80%; inconclusive means between about -30% and that limit;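 further: parasites exposed to compound for two days anaerobically before the ATP read; on the % scale 0 is the no-effect control and ±100 the full control effect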
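Viability, read as ATP luminescence: trophozoites at 100 cells/well, compound added, 48 hrs anaerobic at 37 deg C, then 15-30 min room-temperature development before reading.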
PINK1 expr mod: PINK1 expression modulation; PINK1 immunofluorescence, high-content cytometry, 24 h; 410,000 tested, 0.2% active; Potency, µM (series often up to 76.6 µM), for inactives: top-dose activation (PINK1 increase), hits mostly activators; active means well fitted activation curve with a large enough effect; inconclusive means small, poorly fitted or top-dose-only effect; cell line not stated here; further: potency means the concentration at half of the fitted maximal effect; % of control where 0% means no effect; nearly all actives have a fitted effect of over 65% in size
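Measures PINK1 amount and localization on or inside mitochondria by immunofluorescence. Stable cells get compounds at 5 concentrations for 24 hours before fixation and staining; CCCP controls included.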
Active calls of the source: *; i = inactive; u = inconclusive; x = no result; [ ] = another dose, or the depositor's remark. The list is not random: actives were taken first. Their share in the collection is about 1.3%. Unless noted, the call rests on the fitted dose curve; in most records, active means well fitted curve in the direction sought with a large enough effect; inconclusive means small, poorly fitted or top-dose-only effect, or another doubt; inactive means no such curve, though single readings can be large; an effect the other way counts as inactive or inconclusive.

1. COc1ccc(C(=O)NCCSCc2ccccc2Cl)cc1OC
2. S=C(NCCSCc1ccccc1Cl)Nc1ccccc1
3. CCOc1ccc(CSCCNC(=S)Nc2ccc(OC)cc2)cc1
4. Cc1cccc(CSCC(=O)N2CCN(S(=O)(=O)c3ccccc3C#N)CC2)c1
5. Cc1cccn2c(=O)c3cc(C#N)c(=O)n(-c4nnc(SCc5ccc(Cl)cc5)s4)c3nc12
6. C[C@H](CO)N1C[C@H](C)[C@@H](CN(C)C)Oc2c(NC(=O)Cc3ccccc3)cccc2C1=O
7. Cc1cc(N2C(=O)C(O)=C(C(=O)c3ccc(C)o3)C2c2ccc([N+](=O)[O-])cc2)no1 (stereo not given)
8. Cc1cc(N2C(=O)C(O)=C(C(=O)c3ccc(C)o3)C2c2cccc(Cl)c2)no1 (stereo not given)

Assay by compound	1	2	3	4	5	6	7	8
12-LOX inh	50.1µM*	35.5µM*	44.7µM*	-14.6%	-23.0%	-12.0%	39.8µM*	44.7µM*
ERG-DNA inh	-7.7%	-1.2%	-0.5%	x	9.7%	-14.7%	2.7%	x
miR-21 FLuc	-10.6%	-2.8%	23.4%	x	10.0%	x	0.7%	x
PTHR1 agonist	i	-22.0%[57.5 µM]	-18.6%	-18.0%	i	-13.7%	-24.3%	-3.3%
Giardia killer	9.7	-4.2	-0.3	x	x	-4.7	14.4	x
PINK1 expr mod	1.3%	13.4%	4.0%	1.1%	0.4%	2.8%	1.9%	2.5%

9. CN=C1S/C(=C/c2cn(CC(=O)OC)c3ccccc23)C(=O)N1C
10. CN=C1S/C(=C\c2cn(CC(=O)OC)c3ccccc23)C(=O)N1C
11. CC(C)NC(=O)c1cc(-c2ccc(Br)cc2)on1
12. CCCNC(=O)c1cc(-c2ccc(Br)cc2)on1
13. Cc1c(NC(=O)CN(c2ccc(F)cc2)S(=O)(=O)c2ccccc2)c(=O)n(-c2ccccc2)n1C
14. COc1ccc(NC(=O)CCCc2nnc3n(C)c(=O)c4sccc4n23)cc1
15. Cc1nn(-c2ccccc2)c(N2CCCC2)c1/C=N/NC(=S)Nc1ccccc1C(F)(F)F
16. Cc1nn(-c2ccccc2)c(N2CCCC2)c1/C=N/NC(=S)Nc1cc(C(F)(F)F)ccc1Cl

Assay by compound	9	10	11	12	13	14	15	16
12-LOX inh	28.2µM*	-14.1%	u	-17.6%	455.9%	-1.0%	35.5µM*	u
ERG-DNA inh	-4.3%	-6.1%	-7.6%	-4.6%	5.2%	6.6%	-8.0%	-4.3%
miR-21 FLuc	-0.4%	-13.9%	-49.1%	-41.4%	-1.6%	1.3%	9.7%	-22.7%
PTHR1 agonist	i	i	-14.3%[57.5 µM]	i	i	i	-0.5%	i
Giardia killer	19.9	-7.1	0.3	-5.6	-3.0	u	6.8	-9.6
PINK1 expr mod	3.2%	5.3%	10µM*	5.0%	-0.6%	-0.6%	0.9%	9.1%

17. Cc1[nH]c2ccccc2c1/C=C(\C#N)C(=O)NC1CC1
18. Cc1[nH]c2ccccc2c1/C=C(\C#N)C(=O)NC(C)c1ccccc1 (stereo not given)
19. O=C(CSc1ccc2nnc(-c3cccc(F)c3)n2n1)NCC1CCCO1 (stereo not given)
20. O=C(CSc1ccc2nnc(-c3cccnc3)n2n1)NCC1CCCO1 (stereo not given)
21. Cc1ccc(S(=O)(=O)N/N=C2\C(=O)C3(C)CCC2C3(C)C)cc1 (stereo not given)
22. Cc1ccc(S(=O)(=O)NN=C2C(=O)C3CCC2C3Cl)cc1 (stereo not given)
23. Nc1ncnc2c1ncn2[C@@H]1O[C@H](COP(=O)(O)OP(=O)(O)O)[C@@H](O)[C@H]1O
24. Nc1ncnc2c1ncn2[C@@H]1O[C@H](COP(=O)(O)OP(=O)(O)CP(=O)(O)O)[C@@H](O)[C@H]1O

Assay by compound	17	18	19	20	21	22	23	24
12-LOX inh	u	7.08µM*	3.55µM*	25.4%	u	10µM*	-8.4%	15.8µM*
ERG-DNA inh	-2.6%	11.0%	4.0%	-0.9%	14.0%	-3.7%	x	x
miR-21 FLuc	-48.1%	-4.8%	-0.4%	-1.5%	3.2%	x	x	x
PTHR1 agonist	-13.4%	-18.1%[57.5 µM]	i	i	i	-1.9%	x	x
Giardia killer	19.5	-5.1	-11.8	-25.3	5.2	11.2	x	x
PINK1 expr mod	0.8%	2.5%[38.3 µM]	-2.6%[38.3 µM]	0.2%	0.5%	5.9%	x	x

Part of the list above in order of count of non-hydrogen atoms, falling:
15. Cc1nn(-c2ccccc2)c(N2CCCC2)c1/C=N/NC(=S)Nc1ccccc1C(F)(F)F
20. O=C(CSc1ccc2nnc(-c3cccnc3)n2n1)NCC1CCCO1 (stereo not given)
2. S=C(NCCSCc1ccccc1Cl)Nc1ccccc1

Assay by compound	15	20	2
12-LOX inh	35.5µM*	25.4%	35.5µM*
ERG-DNA inh	-8.0%	-0.9%	-1.2%
miR-21 FLuc	9.7%	-1.5%	-2.8%
PTHR1 agonist	-0.5%	i	-22.0%[57.5 µM]
Giardia killer	6.8	-25.3	-4.2
PINK1 expr mod	0.9%	0.2%	13.4%

Further records follow:
25. COc1ccc(NC(=S)Nc2ccc(OCc3ccccc3)cc2)c(OC)c1
26. Cc1ccc(NC(=S)NCCSc2ccc(Cl)cc2)c(C)c1
27. Cc1ccc(SCCNC(=S)Nc2ccc(F)cc2)cc1
28. Cc1ccc(C)c(NC(=S)NCCSc2ccc(Cl)cc2)c1
29. Cc1ccc(NC(=S)NCc2ccc(F)cc2)cc1
30. CCc1ccccc1NC(=S)NCCSc1ccc(Cl)cc1
31. Cc1ccc(Cl)cc1NC(=S)NCCCSC1CCCCC1
32. Cc1ccc(SCCNC(=S)Nc2cccc(Cl)c2C)cc1

Assay by compound	25	26	27	28	29	30	31	32
12-LOX inh	35.5µM*	u	50.1µM*	28.2µM*	9.6%	50.1µM*	35.5µM*	31.6µM*
ERG-DNA inh	1.2%	-5.5%	x	-2.6%	5.3%	3.4%	1.9%	x
miR-21 FLuc	-4.8%	3.9%	x	-3.4%	x	17.4%	22.9%	x
PTHR1 agonist	i	-22.4%	x	-42.3%	i	-28.2%	-28.1%	x
Giardia killer	-29.3	3.0	x	-4.1	12.9	6.2	-12.1	x
PINK1 expr mod	-1.5%	3.9%	x	u	0.7%	25.2%	u	x

33. COc1ccc(NC(=S)NCCSc2ccc(C)cc2)c(OC)c1
34. Cc1ccccc1NC(=S)NCCSc1ccc(Cl)cc1
35. Cc1ccc(CN2CCC(CNC(=O)Nc3cccc(Cl)c3C)C2)cc1 (stereo not given)
36. Cc1ccc(CN2CCC(CNC(=O)Nc3cn(CC(C)C)c(=O)c4ccccc34)C2)cc1 (stereo not given)
37. Cc1sc(N2CCCC2)nc1-c1ccc(NS(C)(=O)=O)cc1
38. CC1(C)CC(=O)c2cc(-c3nc(-c4ccc(F)cc4)cs3)c(=O)[nH]c2C1
39. Cc1ccc(-c2cc(C(=O)Nc3cnn(C(C)C)c3)no2)cc1
40. O=C(Nc1nc2cc3c(cc2s1)OCCO3)C1=COCCO1

Assay by compound	33	34	35	36	37	38	39	40
12-LOX inh	35.5µM*	44.7µM*	u	44.7µM*	35.5µM*	50.1µM*	0.1%	u
ERG-DNA inh	-4.8%	18.0%	-3.7%	x	x	-2.4%	-1.2%	12.2%
miR-21 FLuc	x	5.8%	4.3%	x	x	-7.3%	-15.9%	u
PTHR1 agonist	i	-9.6%	i	x	x	i	-14.8%	-43.3%
Giardia killer	-4.8	-13.0	x	x	x	x	2.4	-86.3*
PINK1 expr mod	0.0%	20.7%	-0.4%	x	x	7.4%	3.8%	0.8%

41. COc1ccc(CNC(=O)Nn2cnc3ccccc32)cc1OC
42. NNc1cccc(S(=O)(=O)c2cccc(NN)c2)c1
43. COCCN1C(=O)C(=O)/C(=C(/O)c2ccc(Cl)cc2)C1c1ccc(OC)cc1 (stereo not given)
44. O=C(CC[C@H]1NC(=O)c2ccccc2NC1=O)Nc1nc(-c2ccccn2)cs1
45. CC(=O)O[C@@H]1[C@@H](O)CN[C@@H]1Cc1ccccc1
46. Cc1ccc(NS(=O)(=O)c2ccc(OCC(=O)NCC3CCCO3)cc2)cc1 (stereo not given)
47. CCc1ccc2c(CN3CCc4cc(S(N)(=O)=O)ccc43)cc(=O)oc2c1

Assay by compound	41	42	43	44	45	46	47
12-LOX inh	-9.8%	11.2µM*	-21.4%	81.2%	x	-6.1%	14.1µM*
ERG-DNA inh	x	x	x	x	x	-11.6%	x
miR-21 FLuc	x	x	x	x	x	5.5%	x
PTHR1 agonist	x	x	x	x	x	i	x
Giardia killer	x	x	x	x	-82.5*	11.9	x
PINK1 expr mod	x	x	x	x	x	-1.0%	x

Screening results: PubChem BioAssay, National Center for Advancing Translational Sciences (NCATS)
